This is an account of results in ChEMBL document CHEMBL4396878, “Mechanisms of Specific versus Nonspecific Interactions of Aggregation-Prone Inhibitors and Attenuators” (J Med Chem, 2019).

Activity calls are given as the source filed them. No cut-off for these calls is given here.

Assay [1] deals with T1, Rap guanine nucleotide exchange factor 3 (Homo sapiens) (UniProt O95398).
T1 sequence (whole entry): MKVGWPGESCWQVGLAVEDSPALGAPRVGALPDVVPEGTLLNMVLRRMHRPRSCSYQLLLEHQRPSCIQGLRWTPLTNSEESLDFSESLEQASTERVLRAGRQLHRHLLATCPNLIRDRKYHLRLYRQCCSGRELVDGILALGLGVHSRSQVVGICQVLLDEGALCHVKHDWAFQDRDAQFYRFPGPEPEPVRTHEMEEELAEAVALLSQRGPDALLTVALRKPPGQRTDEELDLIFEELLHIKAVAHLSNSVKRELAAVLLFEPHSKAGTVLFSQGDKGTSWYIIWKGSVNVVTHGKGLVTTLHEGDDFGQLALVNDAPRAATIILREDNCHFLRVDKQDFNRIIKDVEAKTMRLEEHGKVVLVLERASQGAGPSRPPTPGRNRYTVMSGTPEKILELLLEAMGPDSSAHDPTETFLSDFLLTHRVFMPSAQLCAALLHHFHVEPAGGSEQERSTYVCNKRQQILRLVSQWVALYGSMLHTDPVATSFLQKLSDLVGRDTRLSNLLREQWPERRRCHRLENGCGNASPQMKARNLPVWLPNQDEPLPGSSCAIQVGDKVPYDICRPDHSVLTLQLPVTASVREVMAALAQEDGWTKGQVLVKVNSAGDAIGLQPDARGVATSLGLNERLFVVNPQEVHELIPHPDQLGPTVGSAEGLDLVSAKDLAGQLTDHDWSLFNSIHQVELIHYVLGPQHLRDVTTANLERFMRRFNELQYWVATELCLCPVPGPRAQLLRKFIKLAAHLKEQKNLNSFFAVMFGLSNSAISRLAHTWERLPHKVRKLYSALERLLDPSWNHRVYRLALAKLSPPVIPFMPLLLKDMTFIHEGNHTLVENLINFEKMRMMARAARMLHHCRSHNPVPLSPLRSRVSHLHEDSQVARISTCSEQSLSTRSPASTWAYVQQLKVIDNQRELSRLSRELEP
The assay can be described thus: Binding affinity to human EPAC1 cAMP binding domain (149 to 318 residues) assessed as intensity loss using aggregate form of compound by [15N-1H]HSQC spectroscopic analysis.

For assay [2], the target named is T1, Rap guanine nucleotide exchange factor 3 (Homo sapiens). The assay can be described thus: Ratio of apparent Kd for binding affinity to human EPAC1 cAMP binding domain (149 to 318 residues) in presence of human serum albumin to apparent Kd for binding affinity to human EPAC1 cAMP binding domain (149 to 318 residues) in absence of human serum albumin.

With `C[C@@H]1CCc2c(cc(Br)c(F)c2Br)N1C=O`, the outcome in assay [1] was inactive. Besides, the Ratio in assay [2] was in the range of 5 to 10.
